Here are results for one compound from ChEMBL document CHEMBL3612042 (J Med Chem, 2015).

In assay [1] the test system is Mycobacterium tuberculosis. Kind of assay: Antibacterial activity against Mycobacterium tuberculosis H37Rv measured at 10 to 14 days by broth microdilution method. Type of assay: functional. Background: Broth dilution looks for growth in wells or tubes with falling amounts of substance.
Assay [2] has as its target T1, Biotin--[acetyl-CoA-carboxylase] ligase (Mycobacterium tuberculosis (strain ATCC 25618 / H37Rv), UniProt I6YFP0).
T1 sequence (I6YFP0 whole entry): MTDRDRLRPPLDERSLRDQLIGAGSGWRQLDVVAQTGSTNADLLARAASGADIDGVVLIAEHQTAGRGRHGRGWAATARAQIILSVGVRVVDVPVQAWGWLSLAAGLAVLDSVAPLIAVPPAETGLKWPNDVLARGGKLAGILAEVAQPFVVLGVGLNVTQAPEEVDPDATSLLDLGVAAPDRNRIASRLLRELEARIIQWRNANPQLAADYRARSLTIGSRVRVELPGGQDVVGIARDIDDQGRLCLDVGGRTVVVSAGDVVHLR

SMILES strings stand for the structures. Values after ≈ are worked out from the molar mass of the structure shown.

For the compound `Nc1ncnc2c1ncn2COCCNS(=O)(=O)NC(=O)CCCC[C@@H]1SC[C@@H]2NC(=O)N[C@@H]21`, the MIC90 (commonly an inhibitory concentration at the 90% level, which refers to growth in some studies and to a panel of isolates in others) in assay [1] came out at 3.12 µM (≈ 1.6 µg/mL). Besides, in assay [2], the affinity, expressed as Kd, was 0.315 nM.
